In patent US20030176368A1, “Synthesis of epothilones, intermediates thereto and analogues thereof” (priority 2001, published 2003):

How the values were obtained:
Format in all cases: cell-based, human
CCRF-CEM = experiment: XTT cytotoxicity assay, CCRF-CEM cells; conditions: XTT assay following 72 h inhibition; read-out: In vitro Cytotoxicities (IC50) CCRF-CEM
Experimental: (§1) XTT assay following 72 h inhibition. CCRF-CEM is a human T-cell acute lymphoblastic leukemia cell line. The CCRF-CEM/VBL100, CCRF-CEM/VM1, and CCRF-CEM/Taxol cell lines all overexpress P-glycoprotein and display a multidrug resistance phenotype to MDR-associated oncolytics. (Chou et al. Proc. Natl. Acad. Sci. USA 98:8113, 2001; incorporated herein by reference).
(§2) A typical experiment invovles culturing cells (e.g., CCRF-CEM) at an initial density of 2-5×10^4 cells per ml. They are maintained in a 5% CO2-humidified atmosphere at 37° C. in RPMI medium 1640 (GIBCO/BRL) containing penicillin (100 units/ml), streptomycin (100 μg/ml) (GIBCO/BRL), and 5% heat-inactivated fetal bovine serum. For cells that were grown in suspension (such as CCRF-CEM and its sublines), cytotoxicitiy is measured by using the 2,-3-bis(2-methoxy-4-nitro-5-sulfophenyl)-5 carboxanilide)-2H terazodium hydroxide (XTT)-microculture tetrazonium method in duplicate in 96-well microtiter plates. For both methods, the absorbance of each well is measured with a microplate reader (EL-340, Bio-Tek, Burlington, Vt.). Each run entails six or seven concentrations of the tested drugs. Dose-effect relationship data are analyzed with the median-effect plot. […]

CCRF-CEM/VBL100 = experiment: XTT cytotoxicity assay, vinblastine-resistant CCRF-CEM/VBL100 cells; conditions: XTT assay following 72 h inhibition; read-out: In vitro Cytotoxicities (IC50) CCRF-CEM/VBL100
Experimental: as §1, §2

CCRF-CEM/Taxol = experiment: XTT cytotoxicity assay, taxol-resistant CCRF-CEM/Taxol cells; conditions: XTT assay following 72 h inhibition; read-out: In vitro Cytotoxicities (IC50) CCRF-CEM/Taxol
Experimental: as §1
A typical experiment invovles culturing cells (e.g., CCRF-CEM) at an initial density of 2-5×10^4 cells per ml. They are maintained in a 5% CO2-humidified atmosphere at 37° C. in RPMI medium 1640 (GIBCO/BRL) containing penicillin (100 units/ml), streptomycin (100 μg/ml) (GIBCO/BRL), and 5% heat-inactivated fetal bovine serum. For cells that were grown in suspension (such as CCRF-CEM and its sublines), cytotoxicitiy is measured by using the 2,-3-bis(2-methoxy-4-nitro-5-sulfophenyl)-5 carboxanilide)-2H terazodium hydroxide (XTT)-microculture tetrazonium method in duplicate in 96-well microtiter plates. For both methods, the absorbance of each well is measured with a microplate reader (EL-340, Bio-Tek, Burlington, Vt.). Each run entails six or seven concentrations of the tested drugs. Dose-effect relationship data are analyzed with the median-effect plot.

## 10,11-dehydro-14,15-[18]desoxyepothilone B [[18]ddEpoB]
CCRF-CEM
  IC50: 322 nM
CCRF-CEM/VBL100
  IC50: 870 nM
CCRF-CEM/Taxol
  IC50: 508 nM
